Source: ChEMBL document CHEMBL5360658, “Discovery of MK-8768, a Potent and Selective mGluR2 Negative Allosteric Modulator” (ACS Med Chem Lett, 2023)

By UniProt entry, the sequences of proteins in these tests, tags left out. Where a name states a change or a piece, a line headed by the entry shows the natural chain unless it says otherwise.
UniProt P43245, whole entry: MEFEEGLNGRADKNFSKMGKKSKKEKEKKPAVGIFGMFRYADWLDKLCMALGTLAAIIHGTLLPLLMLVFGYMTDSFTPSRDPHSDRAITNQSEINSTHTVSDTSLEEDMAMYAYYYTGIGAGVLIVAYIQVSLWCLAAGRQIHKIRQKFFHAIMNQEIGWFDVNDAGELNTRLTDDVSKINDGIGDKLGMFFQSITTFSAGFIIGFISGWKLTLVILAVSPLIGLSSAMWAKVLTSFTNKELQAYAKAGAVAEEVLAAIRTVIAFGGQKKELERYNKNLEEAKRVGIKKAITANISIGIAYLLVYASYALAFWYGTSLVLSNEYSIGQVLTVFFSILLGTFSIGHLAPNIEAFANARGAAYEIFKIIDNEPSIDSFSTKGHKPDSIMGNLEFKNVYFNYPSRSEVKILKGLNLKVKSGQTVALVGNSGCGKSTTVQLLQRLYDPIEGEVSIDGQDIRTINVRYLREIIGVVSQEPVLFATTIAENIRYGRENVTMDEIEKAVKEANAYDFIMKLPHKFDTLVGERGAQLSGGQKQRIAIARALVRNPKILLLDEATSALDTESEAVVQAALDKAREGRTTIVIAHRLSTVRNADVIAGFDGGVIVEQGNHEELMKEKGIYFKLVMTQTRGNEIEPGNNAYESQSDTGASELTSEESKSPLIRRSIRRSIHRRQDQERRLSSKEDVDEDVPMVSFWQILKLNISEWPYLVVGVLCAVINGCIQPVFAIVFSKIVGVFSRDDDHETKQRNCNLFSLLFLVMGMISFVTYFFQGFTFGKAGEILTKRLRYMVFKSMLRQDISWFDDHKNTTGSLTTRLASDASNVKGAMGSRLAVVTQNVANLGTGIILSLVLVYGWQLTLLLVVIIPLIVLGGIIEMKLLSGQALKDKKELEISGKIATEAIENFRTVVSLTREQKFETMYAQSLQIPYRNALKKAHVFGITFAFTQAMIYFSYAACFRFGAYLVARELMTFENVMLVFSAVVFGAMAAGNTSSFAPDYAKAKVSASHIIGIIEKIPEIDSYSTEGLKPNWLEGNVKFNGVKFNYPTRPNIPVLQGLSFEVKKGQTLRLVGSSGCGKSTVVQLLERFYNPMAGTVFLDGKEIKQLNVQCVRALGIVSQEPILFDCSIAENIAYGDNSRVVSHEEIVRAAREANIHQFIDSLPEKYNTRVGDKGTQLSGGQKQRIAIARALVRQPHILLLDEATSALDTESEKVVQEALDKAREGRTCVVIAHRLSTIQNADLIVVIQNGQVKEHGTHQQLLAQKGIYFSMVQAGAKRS
UniProt Q14416: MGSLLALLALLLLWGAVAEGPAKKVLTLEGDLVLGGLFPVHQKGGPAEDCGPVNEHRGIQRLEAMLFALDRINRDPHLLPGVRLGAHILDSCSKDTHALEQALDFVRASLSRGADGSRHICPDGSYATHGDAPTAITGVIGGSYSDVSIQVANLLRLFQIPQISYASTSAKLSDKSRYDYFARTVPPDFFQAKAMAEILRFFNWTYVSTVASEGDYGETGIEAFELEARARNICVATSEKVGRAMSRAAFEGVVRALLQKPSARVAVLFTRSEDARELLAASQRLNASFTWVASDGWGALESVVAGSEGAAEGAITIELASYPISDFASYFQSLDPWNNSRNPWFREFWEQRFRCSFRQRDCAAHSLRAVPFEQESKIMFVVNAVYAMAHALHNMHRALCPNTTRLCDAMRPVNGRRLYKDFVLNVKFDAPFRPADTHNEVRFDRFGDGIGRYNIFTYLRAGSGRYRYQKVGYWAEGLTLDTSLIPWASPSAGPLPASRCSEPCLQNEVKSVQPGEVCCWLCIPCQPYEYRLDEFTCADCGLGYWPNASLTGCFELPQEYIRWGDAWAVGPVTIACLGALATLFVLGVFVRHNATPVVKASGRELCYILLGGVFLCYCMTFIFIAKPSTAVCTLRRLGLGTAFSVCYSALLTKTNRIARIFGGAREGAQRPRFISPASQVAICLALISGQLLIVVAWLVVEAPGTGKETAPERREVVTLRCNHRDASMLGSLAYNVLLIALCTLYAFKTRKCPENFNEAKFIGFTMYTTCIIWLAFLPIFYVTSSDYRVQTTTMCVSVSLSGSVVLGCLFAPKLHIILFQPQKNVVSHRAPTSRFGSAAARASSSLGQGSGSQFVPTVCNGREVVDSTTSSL

target: P-gp (ABCB1) (Rattus norvegicus, UniProt P43245); experiment: Substrate activity at rat P-gp […] in […] LLC-MDR1 cells assessed as efflux ratio of apparent permeability across basolateral to apical over apical to basolateral side; assay type: ADME, cell-based, LLC-MDR1 cell; conditions: LLC-PK1

Q: Which efflux ratio does the source give for `NC(=O)c1cc(-c2ccc(F)cc2)c2ccc(CN3CCOC3=O)cc2n1` here?
A: 3.3

target: Metabotropic glutamate receptor 2 (Homo sapiens, UniProt Q14416); experiment: Negative allosteric modulation at human mGluR2 receptor stably expressed in DHFR null CHO cells co-expressing Galpha16 assessed as effect on intracellular calcium flux measured after 5 min by Fluo-4AM dye based FLIPR analysis; assay type: functional, cell-based; conditions: not given

Q: `Cn1cc(-c2cc(C(N)=O)nc3cc(CN4CCO[C@@H](C(F)(F)F)C4)ccc23)cn1` was tested. Which IC50 did it give?
A: 11 nM

Q: Which IC50 does the source give for `NC(=O)c1cc(-c2ccc(F)cc2)c2ccc(CN3CCNC(C(F)(F)F)C3)cc2n1` (racemic) here?
A: 12 nM

Q: Which IC50 does the source give for `CC1CC=C(c2cc(C(N)=O)nc3cc(CN4C(=O)CCC4=O)ccc23)CC1` (racemic) here?
A: 8 nM

Q: With `CC1CN(Cc2ccc3c(-c4cnn(C)c4)cc(C(N)=O)nc3c2)CCO1` (racemic) as the compound, how does the IC50 read?
A: 166 nM

Q: `CC1CN(Cc2ccc3c(-c4ccc(F)cc4)cc(C(N)=O)nc3c2)CCO1` (racemic) was tested. Which IC50 did it give?
A: 43 nM

Q: With `Cn1cc(-c2cc(C(N)=O)nc3cc(CN4CCOC(C(F)(F)F)C4)ccc23)cn1` (racemic) as the compound, how does the IC50 read?
A: 12 nM
